Reference: patent publication US4183910A, “Method for testing to predict and/or diagnose allergy to penicillins, and compounds and compositions for use in such tests” (priority 1978, dated 1980)

Tested on: patients known to give positive skin test to penicillin derivatives
Assay: Intradermal skin test with BPO-amines and other penicillin allergy skin test materials (Table II)
Format: in vivo, human
Description: Benzylpenicilloyl-polylysine (BPL) was a heterogeneous PPL preparation averaging benzylpenicilloyl7 -polylysine9 (B7 L9) at 1×10^-6 M concentration of the conjugate in tris-buffered saline at pH 8.2.
Benzylpenicillin (PG) was 1.0×10^-2 M in 0.11M saline.
Sodium benzylpenicilloate plus sodium benzylpenilloate (P/P) was 1.0×10^-2 M of each dissolved in phosphate buffered saline at pH 7.5.
Benzylpenicilloyl-amine (BPO-amine) was 1.0×10^-2 M concentration phosphate buffered saline at pH 7.5.
Benzylpenicilloyl-n-propyl amine and benzylpenicilloyl-n-ethyl amine (as α-diastereoisomers) were each dissolved to 1.0×10^-2 M concentration in phosphate buffered saline at pH 7.5.
There were nine patients known to give positive skin test to penicillin derivatives. They were healthy men and women ranging in age from 23 to 56 years. Ten people negative to the skin test materials served as controls.
Using 1.0 ml tuberculin syringes with #26 needles and intradermal bevels, 0.01 ml volumes of the test materials were injected intradermally into the anterior-lateral aspects of the arms. Skin tests were read in 15 minutes. A negative reaction is the poorly outlined bleb of fluid --1-3 mm in diameter without surrounding erythema. Positive tests were sharply outlined wheals of 4-20 mm diameter with surrounding erythema. The positive tests were graded as 1+,2+,3+ and 4+ on the basis of wheal diameter. 1+=4-6 mm; 2+=7-9 mm; 3+=10-12 mm; and 4+=more than 13 mm with pseudopods. The stronger reactionshad wider circles of surrounding erythema which were more intensely red. Skin tests were done in duplicate. Duplicates gave identical or nearly identical readings.

Benzylpenicilloyl-polylysine [BPL]
Intensity of reactions in patients: patient gamma (patient eight, intradermal 0.01 ml, read in 15 minutes, BPL 1 × 10^-6 M, other materials 1 × 10^-2 M): 4+ (4+=more than 13 mm with pseudopods) | Intensity of reactions in patients: patient eta (patient five, intradermal 0.01 ml, read in 15 minutes, BPL 1 × 10^-6 M, other materials 1 × 10^-2 M): 0 (A negative reaction is the poorly outlined bleb of fluid --1-3 mm in diameter without surrounding erythema) | Intensity of reactions in patients: patient alpha (patient four, intradermal 0.01 ml, read in 15 minutes, BPL 1 × 10^-6 M, other materials 1 × 10^-2 M): 0 (A negative reaction is the poorly outlined bleb of fluid --1-3 mm in diameter without surrounding erythema) | Skin test reaction of patient four, in words (patient four, text summary of Table II): entirely negative | Intensity of reactions in patients: patient iota (patient nine, intradermal 0.01 ml, read in 15 minutes, BPL 1 × 10^-6 M, other materials 1 × 10^-2 M): 1+ (1+=4-6 mm) | Intensity of reactions in patients: patient zeta (patient one, intradermal 0.01 ml, read in 15 minutes, BPL 1 × 10^-6 M, other materials 1 × 10^-2 M): 1+ (1+=4-6 mm) | Intensity of reactions in patients: patient epsilon (patient seven, intradermal 0.01 ml, read in 15 minutes, BPL 1 × 10^-6 M, other materials 1 × 10^-2 M): 4+ (4+=more than 13 mm with pseudopods) | Intensity of reactions in patients: delta (patient six, intradermal 0.01 ml, read in 15 minutes, BPL 1 × 10^-6 M, other materials 1 × 10^-2 M): 4+ (4+=more than 13 mm with pseudopods) | Intensity of reactions in patients: beta (patient three, intradermal 0.01 ml, read in 15 minutes, BPL 1 × 10^-6 M, other materials 1 × 10^-2 M): 0 (A negative reaction is the poorly outlined bleb of fluid --1-3 mm in diameter without surrounding erythema) | Intensity of reactions in patients: theta (patient two, intradermal 0.01 ml, read in 15 minutes, BPL 1 × 10^-6 M, other materials 1 × 10^-2 M): 3+ (3+=10-12 mm)
